## scFv variants of Ab-95 (light chain) against a SARS-CoV-2 spike peptide

The measurements come from Engelhart et al. 2022 (doi:10.1038/s41597-022-01779-4) through the FLAb antibody collection.

Antigen: PDVDLGDISGINAS, a 14-residue peptide of the SARS-CoV-2 spike HR2 region.

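AAYL52 was designed without a model: most single CDR substitutions and a random sample of double and triple ones. Affinity was read by AlphaSeq, a pooled yeast mating assay with surface-displayed partners. The frequency of each diploid, read from paired DNA barcodes, reflects how well the two displayed proteins bind. The ratio of observed to expected reads was calibrated, replicate by replicate, on BCL2-family standards whose Kd was known from biolayer interferometry. Each pool was mated in three replicate cultures.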

The variants keep the heavy chain, the linker and the frameworks of Ab-95 (scFv order VH, the linker GGGGSGGGGSGGGGS, VL).
VH: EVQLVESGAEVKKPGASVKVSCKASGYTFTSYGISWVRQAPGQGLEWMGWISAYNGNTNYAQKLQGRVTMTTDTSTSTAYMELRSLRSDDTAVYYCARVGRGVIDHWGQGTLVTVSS
VL: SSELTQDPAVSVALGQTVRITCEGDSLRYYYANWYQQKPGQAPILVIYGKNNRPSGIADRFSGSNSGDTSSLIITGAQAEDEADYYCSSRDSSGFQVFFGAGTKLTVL

Positions count from residue 1 of the parent VL; S92C puts C in place of S. All variants listed here change S92 of the VL, counted from its first residue. Values are apparent Kd, the geometric mean of the replicates that gave a signal; lower means stronger binding. Where no diploid with the target was found in any replicate, the entry reads "not detected": below detection, most likely a poor binder, though not proof of it.

changes,Kd (apparent),detected
S92C/S93M,390 nM,3 of 3
E23Q/K50D/S92F,93 nM,3 of 3
S92C/G94N,3.2 µM,3 of 3
S26D/S92W/G94L,7.8 µM,2 of 3
E23F/S92D/V97H,5.5 µM,3 of 3
S92K/G94M/F98W,380 nM,3 of 3
Y30E/N51V/S92P,220 nM,3 of 3
R90T/S92W/Q96F,1.5 µM,2 of 3
S89A/S92F/S93I,2.9 µM,3 of 3
S55K/S92W,630 nM,3 of 3
N52I/R53D/S92C,71 µM,2 of 3
E23G/N33T/S92Q,28 µM,2 of 3
S92W/Q96W/V97Q,27 µM,3 of 3
G49I/S92Q,12 µM,2 of 3
R28Q/Y31T/S92F,450 nM,2 of 3
A32Q/N52W/S92F,26 µM,1 of 3
Y30G/G49V/S92W,1.2 µM,3 of 3
N52R/S92P/Q96R,10 µM,1 of 3
R53E/S92A/Q96K,14 µM,1 of 3
L27Y/N33T/S92Q,270 nM,3 of 3
L27W/S92K/V97E,87 nM,3 of 3
A32Y/N52K/S92I,1.6 µM,1 of 3
D25Y/S55V/S92I,2.0 µM,1 of 3
D91P/S92Y/V97E,30 µM,2 of 3
L27D/N52V/S92G,not detected,0 of 3
K50P/S92E/Q96V,190 nM,3 of 3
G24T/S92G,4.9 µM,1 of 3
R53D/S92I/F98Y,not detected,0 of 3
Y29K/S92I/F95N,2.6 µM,3 of 3
L27H/S92T/G94T,110 µM,1 of 3
G49R/S92H,390 µM,1 of 3
N52V/S92C/F98W,230 nM,3 of 3
Y30H/S92L/V97K,790 nM,3 of 3
S26V/R90A/S92V,16 µM,2 of 3
N51L/N52Y/S92Q,4.5 µM,2 of 3
K50G/R53F/S92Q,760 nM,2 of 3
Y31A/S89K/S92M,1.0 µM,3 of 3
N51R/S92R/S93F,14 µM,1 of 3
S92M/G94M,3.8 µM,3 of 3
A32S/R90H/S92V,16 µM,3 of 3
L27E/S92W/S93I,65 µM,3 of 3
E23Q/N52Q/S92H,26 nM,3 of 3
K50F/S88G/S92H,680 nM,3 of 3
E23I/Y31P/S92M,40 nM,3 of 3
S26K/R53E/S92T,not detected,0 of 3
R28D/S89I/S92Q,480 nM,3 of 3
G24R/P54C/S92Q,1.6 µM,3 of 3
N33W/P54I/S92D,5.2 µM,2 of 3
L27C/S89I/S92K,2.0 µM,1 of 3
L27M/N52K/S92C,44 µM,1 of 3
A32P/S88K/S92I,23 µM,2 of 3
R53L/S92D/F98L,1.9 µM,3 of 3
K50S/S92D/F98S,35 µM,1 of 3
G24R/N51L/S92I,590 nM,1 of 3
G49S/N52Y/S92Q,1.6 µM,3 of 3
N52A/S92P/F98N,590 nM,3 of 3
S92C/F95T,1.2 µM,1 of 3
Y30T/N51G/S92F,27 nM,3 of 3
S88T/S92F,13 µM,2 of 3
S92P,280 nM,3 of 3
A32Q/S92L/S93E,21 µM,2 of 3
N51H/S92Y/F98V,2.1 µM,3 of 3
S92L,450 nM,3 of 3
Y30T/N33A/S92F,1.6 µM,3 of 3
N33V/R53A/S92W,110 nM,3 of 3
R28L/S92I/G94D,31 nM,3 of 3
A32C/S89A/S92Y,1.2 µM,3 of 3
G24I/S92N/F98W,6.5 µM,1 of 3
D25S/A32Q/S92H,not detected,0 of 3
N51R/S88Y/S92D,3.8 µM,1 of 3
L27N/S89G/S92G,6.5 µM,3 of 3

Excerpt, the final 7 entries:

changes,Kd (apparent),detected
N33V/R53A/S92W,110 nM,3 of 3
R28L/S92I/G94D,31 nM,3 of 3
A32C/S89A/S92Y,1.2 µM,3 of 3
G24I/S92N/F98W,6.5 µM,1 of 3
D25S/A32Q/S92H,not detected,0 of 3
N51R/S88Y/S92D,3.8 µM,1 of 3
L27N/S89G/S92G,6.5 µM,3 of 3

Parent in this assay: reference entry 200 nM, copy in this library 180 nM. Three control strains display no target. For library AAYL52, 28% of the pairings with them gave a signal, with a median of 8.2 µM and one signal in twenty below 800 nM, so weak values seen in few replicates may be background.